Molecular target: T1, β-amyloid 1-40 (Homo sapiens, UniProt P05067)
T1 construct: Beta-amyloid 1-40 (Aβ) and biotin-labeled β-amyloid 1-40 peptides were purchased from Biosource; purchased Biosource (Camarillo, Calif.)
Assay: TRF aggregation assay for β-amyloid polypeptide aggregation
Format: biochemical
Settings: 50 ug/ml β-amyloid, 24 uM test compound, 2% DMSO, 37° C. for 24 hrs
Protocol: Beta-amyloid 1-40 (Aβ) and biotin-labeled β-amyloid 1-40 peptides were purchased from Biosource (Camarillo, Calif.). β-amyloid and biotinylated amyloid stock solutions, diluted in 0.1% acetic acid and corrected for 80% peptide content, were diluted to 83 μg/ml and 42 μg/ml, respectively, in reaction buffer (Dulbecco's PBS pH 7.4, 0.02% Tween 20). An equal mixture of the two β-amyloid products was then brought to a final concentration of 62.5 μg/ml total β-amyloid, giving a final 2:1 ratio of unbiotinylated to biotinylated Aβ polypeptide. When analyzing aggregation in the presence of test compound, 5 ul of diluted test compound (120 uM in 10% DMSO) was added to each well being analyzed in a 384-well polystyrene plate (Nunc). Test compounds are added over a range of concentrations. Twenty microliters of the β-amyloid reaction mixture was dispensed into each well of the 384 well plate, giving the final assay conditions as 24 uM test compound, 2% DMSO, and 50 ug/ml β-amyloid in a final volume of 25 uL. Plates were then sealed with foil sealers (Corning), and incubated at 37° C. for 24 hrs. […] Plates were washed with reaction buffer and 75 uL of DELFIA Enhancement solution (Wallac) was added to each well and the plates read on TRF capable plate reader (excitation at 337 run and emission at 620 nm).

Sequences of proteins named here, by UniProt entry; tags and fusion partners are left off. Residues count along the entry.
UniProt P05067, 672-711 limits assumed: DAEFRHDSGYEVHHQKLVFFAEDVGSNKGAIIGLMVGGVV

## ApoE3: known Aβ aggregation inhibitor
  prevents Aβ aggregation: 75%
